# Reference: US20160169918A1, “Methods of Diagnosis and Treatment for Pulmonary Arterial Hypertension” (THE REGENTS OF THE UNIVERSITY OF CALIFORNIA, priority 2013, published 2016)
# Sequences of proteins named here, by UniProt entry; tags and fusion partners are left off. Residues count along the entry.
# UniProt P32241, 31-457: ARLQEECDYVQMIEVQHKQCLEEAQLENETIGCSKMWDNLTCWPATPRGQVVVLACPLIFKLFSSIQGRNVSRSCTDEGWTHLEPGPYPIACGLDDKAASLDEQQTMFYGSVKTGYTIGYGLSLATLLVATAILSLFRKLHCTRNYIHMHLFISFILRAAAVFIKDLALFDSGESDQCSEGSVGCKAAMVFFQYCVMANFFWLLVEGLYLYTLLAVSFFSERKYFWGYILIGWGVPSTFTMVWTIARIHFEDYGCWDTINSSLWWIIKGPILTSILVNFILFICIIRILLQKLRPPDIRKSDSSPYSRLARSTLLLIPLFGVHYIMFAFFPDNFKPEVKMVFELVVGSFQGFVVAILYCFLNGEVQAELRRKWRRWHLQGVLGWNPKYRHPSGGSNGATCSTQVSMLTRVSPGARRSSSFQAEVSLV
# Target: T1, vasoactive intestinal peptide receptor (VIPR1) (Homo sapiens, UniProt P32241)
# T1 construct: It was confirmed that VIPR1 is expressed on the membrane of PASMCs; endogenous in cells; host or cells: Ctrl-PASMCs (primary human pulmonary artery smooth muscle cells)
# Experiment: cAMP accumulation in response to receptor agonist (cAMP radioimmunoassay) in Ctrl-PASMCs
# Assay type: cell-based
substance,measurement,setting,value
Vasoactive Intestinal Peptide [VIP],"cAMP levels, concentration dependence",FIG. 4C,dose-dependently increases cAMP
same,cAMP accumulation,"agonist 1 μM, 10 min treatment",0.2 fmol cAMP/cell/10 min
